# Results reported in patent publication US20240352073A1, “BICYCLIC PEPTIDE INHIBITORS OF INTERLEUKIN-23 RECEPTOR” (Janssen Biotech, Inc., priority 2021, published 2024).
# What was measured:
# [1] = target: T1, IL-23R (Homo sapiens, UniProt Q5VWK5); assay: IL-23R reporter assay (HEK293, STAT-inducible luciferase); format: cell-based; conditions: IL-12Rβ1 and STAT-inducible luciferase reporter
# T1 construct: host or cells: HEK293
# T1 sequence (Q5VWK5 24-629): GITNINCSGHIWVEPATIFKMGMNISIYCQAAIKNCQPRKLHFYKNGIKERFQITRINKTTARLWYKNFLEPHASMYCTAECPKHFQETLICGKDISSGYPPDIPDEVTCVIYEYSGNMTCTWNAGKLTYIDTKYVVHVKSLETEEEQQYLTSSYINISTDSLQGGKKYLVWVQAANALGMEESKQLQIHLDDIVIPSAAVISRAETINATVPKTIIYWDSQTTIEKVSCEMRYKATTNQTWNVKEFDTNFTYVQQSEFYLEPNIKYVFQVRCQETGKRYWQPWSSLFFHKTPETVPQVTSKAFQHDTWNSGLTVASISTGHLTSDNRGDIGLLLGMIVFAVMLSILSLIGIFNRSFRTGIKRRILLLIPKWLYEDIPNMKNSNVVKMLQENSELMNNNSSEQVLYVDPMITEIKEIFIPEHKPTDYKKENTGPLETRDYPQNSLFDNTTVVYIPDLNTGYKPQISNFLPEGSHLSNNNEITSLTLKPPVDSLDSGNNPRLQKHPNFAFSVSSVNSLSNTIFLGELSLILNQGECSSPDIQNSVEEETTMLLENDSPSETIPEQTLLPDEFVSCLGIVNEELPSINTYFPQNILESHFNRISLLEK
# Method: Example 4. IL-23R Reporter Assay
# Compounds were serially diluted in 100% (v/v) DMSO) and plated using an Echo acoustic dispenser (Labcyte) into 1536-well non-treated black assay plates (Corning #9146). 3 μL of HEK293 cells containing IL-23R, IL-12Rβ1 and a firefly luciferase reporter gene driven by a STAT-inducible promoter (Promega) were added to the plates (4000 cells/well), followed by 3 μL of 20 ng/mL IL-23 (equivalent to EC90 concentration). After 5 h at 37° C., 5% CO2, 95% relative humidity, cells were placed at 20° C. and treated with BioGlo reagent (Promega) according to the manufacturer's instructions. Luminescence was measured on a Pherastar FSX (BMG LabTech). Data were normalized to IL-23 treatment (0% inhibition) and 30 μM of control inhibitor (100% inhibition), and IC50 values were determined using a 4-parameter Hill equation. Where multiple measurements have been made the average is shown with the number of replicates indicated in parenthesis following the IC50 values.
# [2] = target: T2, peripheral blood mononuclear cells (PBMCs) stimulated with IL-23 (Homo sapiens, UniProt Q5VWK5); assay: PBMC pSTAT3 assay; format: cell-based; conditions: read-out: PBMC pSTAT3 IC50; PBMCs from healthy donors; IL-23 5 ng/mL, 30 minutes; phosphorylated STAT3 in lysates
# T2 sequence (Q5VWK5 24-629): T1 sequence (Q5VWK5 24-629)
# Method: Cryopreserved peripheral blood mononuclear cells (PBMCs) from healthy donors were thawed and washed twice in ImmunoCult-XF T cell expansion medium (XF-TCEM) supplemented with CTL anti-aggregate wash. The cells were counted, resuspended at 2×10^5 cells per mL XF-TCEM supplemented with penicillin/streptomycin and 100 ng/mL […] (BioLegend, 579404), and cultured in tissue culture flasks coated with anti-CD3 (eBioscience, 16-0037-85 or BD Pharmingen, 555329) at 37° C. in 5% C02. On day 4 of culture, PBMCs were collected, washed twice in RPMI-1640 supplemented with 0.1% BSA (RPMI-BSA), and incubated in RPMI-BSA in upright tissue culture flasks for 4 hours at 37° C. in 5% C02. Following this ‘starvation,’ a total of 6×10^4 cells in 30 μL RPMI-BSA was transferred into each well of a 384-well plate pre-spotted with peptide or DMSO. The cells were incubated for 30 minutes prior to the addition of IL-23 at a final concentration of 5 ng/mL. The cells were stimulated with cytokine for 30 minutes at 37° C. in 5% C02, transferred onto ice for 10 minutes, and lysed. Cell lysates were stored at −80° C. until phosphorylated STAT3 was measured using the phospho-STAT panel kit (Meso Scale Discovery, K15202D). The results produced with PBMCs are provide in Table 5 below for several from Examples along with data from the IL23R Reporter Assays utilizing HEK293 cells described above. The results are reported for single assays or as the average of replicate assays as indicated by the number in parentheses following the IC50 value.
# [3] = Table 4, HEK293 cells with IL-23R, stimulated with IL-23
Substance,"IC50 [1, 3] [nM]",IC50 [2] [nM],"IC50 ([1]; HEK293 cells containing IL-23R, 20 ng/mL IL-23 (EC90), 5 h) [nM]"
5Ava(2)-Abu(1)-N-T-W-Q-C(1)-AEF-2Nal-THP-E(2)-N-3Pya-Sar-K(PEG2PEG2gEC18OH)-CONH2 [Example 250],3.2,0.0277,–
CF3CO-Pen(3)-E(2)-T-7MeW-K(NMeAc)-Pen(3)-AEF(2)-2Nal-THP-K(NMeAc)-N-3Pya-Sar-CON(Me)2 [Example 221],~9410,1100,–
MeCO-Pen(3)-K(NMe)(5)-T-7MeW-K(Ac)-Pen(3)-AEF(5)-2Nal-THP-E-N-3Pya-Sar-CONH2 [Example 265],2.2,0.002,–
MeCO-Pen(3)-N-3OHPro-7MeW-S5H(4)-Pen(3)-AEF-2Nal-S5H(4)-K(Ac)-N-3Pya-CONH2 [Example 202],–,0.0155,7150
